Data on 1 substance can be found in patent publication US20230218710A1, “METHOD OF TREATING CORONAVIRUS INFECTIONS” (priority 2020, published 2023).

By UniProt entry, the sequences of proteins in these tests, tags left out. Where a name states a change or a piece, a line headed by the entry shows the natural chain unless it says otherwise.
UniProt P35414: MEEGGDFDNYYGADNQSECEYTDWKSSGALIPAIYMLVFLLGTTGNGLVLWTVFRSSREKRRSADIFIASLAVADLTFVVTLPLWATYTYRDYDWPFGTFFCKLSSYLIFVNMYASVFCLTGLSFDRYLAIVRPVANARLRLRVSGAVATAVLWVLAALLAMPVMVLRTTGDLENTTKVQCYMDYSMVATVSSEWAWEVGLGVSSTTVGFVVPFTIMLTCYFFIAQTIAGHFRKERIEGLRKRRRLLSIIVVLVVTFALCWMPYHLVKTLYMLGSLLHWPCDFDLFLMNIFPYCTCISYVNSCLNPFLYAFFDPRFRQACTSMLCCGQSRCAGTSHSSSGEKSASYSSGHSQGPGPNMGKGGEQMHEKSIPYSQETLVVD
UniProt Q9ULZ1: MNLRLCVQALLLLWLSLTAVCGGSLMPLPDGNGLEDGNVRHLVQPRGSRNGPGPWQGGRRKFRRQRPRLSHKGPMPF

The target in this assay is Apelin Receptor (APJ) stably overexpressed in CHO-K1 AGTRL1 Gi cells (UniProt P35414). The assay can be described thus: cell-based or functional assay.

As for “Pyr-Apelin-13 (from UniProt Q9ULZ1 65-77) (peptide)”, the IC50 (M), inhibition of forskolin-stimulated cAMP accumulation is 1.76e-09 M.
